Laboratory results reported in US10077265B2, “Substituted oxopyridine derivatives” (BAYER PHARMA AKTIENGESELLSCHAFT, priority 2014, dated 2018).

Sequences of proteins named here, by UniProt entry; tags and fusion partners are left off. Residues count along the entry.
UniProt P03952, 20-390 partner: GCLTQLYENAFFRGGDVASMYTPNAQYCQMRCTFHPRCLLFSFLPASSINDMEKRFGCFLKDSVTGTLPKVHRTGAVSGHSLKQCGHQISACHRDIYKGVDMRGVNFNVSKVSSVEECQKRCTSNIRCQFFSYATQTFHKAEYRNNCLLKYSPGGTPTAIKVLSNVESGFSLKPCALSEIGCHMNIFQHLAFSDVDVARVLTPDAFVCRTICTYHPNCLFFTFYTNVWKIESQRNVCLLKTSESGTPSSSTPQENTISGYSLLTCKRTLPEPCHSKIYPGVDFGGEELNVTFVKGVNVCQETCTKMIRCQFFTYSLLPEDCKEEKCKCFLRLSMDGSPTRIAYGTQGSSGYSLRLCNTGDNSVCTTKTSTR
UniProt P03952, 391-638: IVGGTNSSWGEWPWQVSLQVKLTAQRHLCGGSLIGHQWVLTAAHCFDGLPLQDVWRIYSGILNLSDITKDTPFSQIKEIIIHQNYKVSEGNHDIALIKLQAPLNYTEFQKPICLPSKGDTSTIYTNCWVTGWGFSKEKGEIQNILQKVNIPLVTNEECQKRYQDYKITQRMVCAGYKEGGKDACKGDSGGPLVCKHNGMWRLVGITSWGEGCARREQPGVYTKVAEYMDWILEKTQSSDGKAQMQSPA
UniProt P03951, 19-387 partner: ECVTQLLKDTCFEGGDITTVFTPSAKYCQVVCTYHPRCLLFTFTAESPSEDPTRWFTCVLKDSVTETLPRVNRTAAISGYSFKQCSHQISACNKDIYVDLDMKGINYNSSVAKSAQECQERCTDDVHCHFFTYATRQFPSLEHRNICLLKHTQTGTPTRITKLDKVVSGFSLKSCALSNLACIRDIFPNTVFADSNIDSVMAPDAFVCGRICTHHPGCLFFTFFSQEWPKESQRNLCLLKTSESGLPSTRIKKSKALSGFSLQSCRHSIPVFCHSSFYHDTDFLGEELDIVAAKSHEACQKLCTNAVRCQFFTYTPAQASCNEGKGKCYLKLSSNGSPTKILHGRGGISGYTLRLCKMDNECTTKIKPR
UniProt P03951, 388-625: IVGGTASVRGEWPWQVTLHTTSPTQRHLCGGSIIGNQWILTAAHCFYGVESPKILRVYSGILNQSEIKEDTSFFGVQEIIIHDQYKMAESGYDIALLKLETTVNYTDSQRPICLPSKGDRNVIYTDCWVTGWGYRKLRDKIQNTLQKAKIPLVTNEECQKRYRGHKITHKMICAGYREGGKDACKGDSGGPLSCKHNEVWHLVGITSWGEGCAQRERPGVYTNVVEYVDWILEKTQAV

Legend:
human plasma kallikrein = human plasma kallikrein (Homo sapiens (Human), UniProt P03952); experiment: Determination of the plasma kallikrein activity (fluorogenic peptide substrate); assay type: biochemical; details: plasma kallikrein from Kordia, substrate H-Pro-Phe-Arg-AMC, 30 min at 22° C.
Experimental: (§1) To determine the plasma kallikrein inhibition of the substances according to the invention, a biochemical test system is used which utilizes the reaction of a peptidic plasma kallikrein substrate to determine the enzymatic activity of human plasma kallikrein. Here, plasma kallikrein cleaves from the peptic plasma kallikrein substrate the C-terminal aminomethylcoumarin (AMC), the fluorescence of which is measured. The determinations are carried out in microtitre plates.
Test substances are dissolved in dimethyl sulphoxide and serially diluted in dimethyl sulphoxide (3000 μM to 0.0078 μM; resulting final concentrations in the test: 50 μM to 0.00013 μM). 1 μl of the diluted substance solutions is placed into each of the wells of white microtitre plates from Greiner (384 wells). 20 μl of assay buffer (50 mM Tris/HCl pH 7.4; 100 mM sodium chloride solution; 5 mM of calcium chloride solution; 0.1% of bovine serum albumin) and 20 μl of plasma kallikrein from Kordia (0.6 nM in assay buffer) are then added successively. After 15 min of incubation, the enzyme reaction is started by addition of 20 μl of the substrate H-Pro-Phe-Arg-AMC dissolved in assay buffer (10 μM in assay buffer) from Bachem, the mixture is incubated at room temperature (22° C.) for 30 min and fluorescence is then measured (excitation: 360 nm, emission: 460 nm). The measured emissions of the test batches with test substance are compared to those of control batches without test substance (only dimethyl sulphoxide instead of test substance in dimethyl sulphoxide), and IC50 values are calculated from the concentration/activity relationships.

human factor XIa = human factor XIa (Homo sapiens (Human), UniProt P03951); experiment: Measurement of FXIa inhibition (fluorogenic peptide substrate); assay type: biochemical; details: factor XIa from Kordia, substrate Boc-Glu(OBzl)-Ala-Arg-AMC, 30 min at 22° C.
Experimental: as §1, with “The factor XIa” for “To determine the plasma kallikrein”, “invention is determined using” for “invention,”, “system” for “system is used”, “factor XIa” for “plasma kallikrein”, “factor XIa.” for “plasma kallikrein.”
1 μl of the diluted substance solutions is placed into each of the wells of white microtitre plates from Greiner (384 wells). […] After 15 min of incubation, the enzyme reaction is started by addition of 20 μl of the factor XIa substrate Boc-Glu(OBzl)-Ala-Arg-AMC dissolved in assay buffer (10 μM in assay buffer) from Bachem, the mixture is incubated at room temperature (22° C.) for 30 min and fluorescence is then measured (excitation: 360 nm, emission: 460 nm). The measured emissions of the test batches with test substance are compared to those of control batches without test substance (only dimethyl sulphoxide instead of test substance in dimethyl sulphoxide), and IC50 values are calculated from the concentration/activity relationships.

Row | IC50 (human plasma kallikrein) [nM] | IC50 (human factor XIa) [nM] | Compound
1 | 11 | – | CCC(C(=O)Nc1ccn2ncc(C(N)=O)c2c1)n1cc(OC)c(-c2cc(Cl)ccc2C#N)cc1=O (racemic) [Example 3, 5-({2-[4-(5-Chloro-2-cyanophenyl)-5-methoxy-2-oxopyridin-1(2H)-yl]butanoyl}amino)pyrazolo-[1,5-a]pyridine-3-carboxamide (racemate)]
2 | 2.7 | – | COCCC(C(=O)Nc1ccn2ncc(C(N)=O)c2c1)n1cc(OC)c(-c2cc(Cl)ccc2C#N)cc1=O (racemic) [Example 4, 5-({2-[4-(5-Chloro-2-cyanophenyl)-5-methoxy-2-oxopyridin-1(2H)-yl]-4-methoxybutanoyl}amino)pyrazolo[1,5-a]pyridine-3-carboxamide (racemate)]
3 | – | 51 | CCCNC(=O)c1cnn2ccc(NC(=O)C(CCOC)n3cc(OC)c(-c4cc(Cl)ccc4C#N)cc3=O)cc12 (racemic) [Example 7, 5-({2-[4-(5-Chloro-2-cyanophenyl)-5-methoxy-2-oxopyridin-1(2H)-yl]-4-methoxybutanoyl}amino)-N-propylpyrazolo[1,5-a]pyridine-3-carboxamide (racemate)]
4 | 0.8 | – | COCCC(C(=O)Nc1ccn2ncc(C(N)=O)c2c1)n1cc(OC)c(-c2cc(Cl)ccc2C#N)cc1=O (single isomer, unassigned; enantiomer 1) [Example 5, 5-({2-[4-(5-Chloro-2-cyanophenyl)-5-methoxy-2-oxopyridin-1(2H)-yl]-4-methoxybutanoyl}-amino)pyrazolo[1,5-a]pyridine-3-carboxamide (enantiomer 1)]
